Target: Angiotensin receptor 1a-eYFP-α fusion (mouse Angiotensin II receptor 1a, C-terminal eYFP-α(H31R)) (mouse; E. coli) (UniProt P29754)
Test: cell-based or functional assay

Amino acid sequences for entries named in this document (tags omitted). Chains listed by the source or under a name are the forms on record and can include a tag or linker.
UniProt P29754, other isoform, or with tags, fused parts or gaps H31R H31R: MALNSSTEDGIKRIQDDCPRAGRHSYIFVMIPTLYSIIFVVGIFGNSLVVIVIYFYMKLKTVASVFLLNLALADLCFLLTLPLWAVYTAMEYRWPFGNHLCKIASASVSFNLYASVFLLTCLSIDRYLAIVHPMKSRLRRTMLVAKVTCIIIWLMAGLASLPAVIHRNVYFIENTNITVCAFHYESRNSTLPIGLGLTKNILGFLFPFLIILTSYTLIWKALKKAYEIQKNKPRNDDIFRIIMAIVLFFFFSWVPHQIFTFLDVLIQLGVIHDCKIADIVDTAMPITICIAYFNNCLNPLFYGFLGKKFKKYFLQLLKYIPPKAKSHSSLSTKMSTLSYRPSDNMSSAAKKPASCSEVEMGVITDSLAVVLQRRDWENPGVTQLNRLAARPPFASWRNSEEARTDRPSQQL

## angiotensin II (from UniProt P01019 25-32) (peptide)
  EC50, arrestin-binding activation assay (β-galactosidase complementation of β-arrestin-ω + GPCR-eYFP-α): 2.4 nM
  EC50, internalization assay (β-galactosidase complementation of FYVE-ω + GPCR-eYFP-α): 3.3 nM

From US20100285451A1
